Chains of the proteins cited; added tags and fusions are not shown.
UniProt P27338, whole entry: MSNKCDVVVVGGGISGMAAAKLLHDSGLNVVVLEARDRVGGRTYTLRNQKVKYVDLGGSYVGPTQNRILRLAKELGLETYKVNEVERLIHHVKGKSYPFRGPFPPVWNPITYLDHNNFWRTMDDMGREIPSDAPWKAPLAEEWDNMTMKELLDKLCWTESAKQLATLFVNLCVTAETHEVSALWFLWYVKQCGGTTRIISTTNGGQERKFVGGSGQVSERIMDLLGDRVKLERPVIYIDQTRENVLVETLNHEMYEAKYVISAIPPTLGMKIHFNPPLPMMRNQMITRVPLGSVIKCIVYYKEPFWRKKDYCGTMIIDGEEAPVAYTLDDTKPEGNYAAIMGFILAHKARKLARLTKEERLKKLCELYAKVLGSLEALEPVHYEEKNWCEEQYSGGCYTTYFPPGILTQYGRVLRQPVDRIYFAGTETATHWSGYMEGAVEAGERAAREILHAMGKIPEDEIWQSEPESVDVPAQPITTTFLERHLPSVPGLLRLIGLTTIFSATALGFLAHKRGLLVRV

According to article PMC8958504 (Journal of Medicinal Chemistry, 2022):

Tests used:
hMAO-B = hMAO-B (Homo sapiens, UniProt P27338)
[1] = tested on: NRF2-ARE signaling pathway; test: cells; type: cell-based; settings: Arec32, 24 h, read-out: NRF2 (CD, μM), concentration required to double luciferase activity, AREc32 cells, 24 h
Method: AREc32 cells were plated in 96-well white plates (2 × 10^4 cells/well). […]. The AREc32 cells constitutively express the plasmid pGL-8xARE that implements eight copies of the EpRE sequences, followed by the luciferase reporter gene. Therefore, NRF2 induction is related to the activation of EpRE sequences, expressing luciferase at the same extent as EpRE sequences are activated. The Luciferase Assay System (Promega E1500) was used according to the provider’s protocol, and luminescence was quantified in an Orion II microplate luminometer (Berthold, Germany). Fold induction of luciferase activity was normalized to basal conditions. Data are expressed as CD values, expressing the concentration required to double the luciferase activity. CD values were calculated from dose–response curves generated from the fold induction of control conditions versus inducer concentration and fitted by nonlinear regression and data interpolated to twofold induction concentration.[68]

| SMILES | hMAOs SI (hMAO-B) | EC (2-fold induction) [1] |
| --- | --- | --- |
| O=c1[nH]nc(/C=C/c2cccc([N+](=O)[O-])c2)o1 [2c, 5-[(E)-2-(3-Nitrophenyl)ethenyl]-1,3,4-oxadiazol-2(3H)-one] | >47.2 | 8.42 µM |
| O=c1[nH]nc(/C=C/c2ccc3c(c2)OCO3)o1 [2i, 5-[(E)-2-(2H-1,3-Benzodioxol-5-yl)ethenyl]-1,3,4-oxadiazol-2(3H)-one] | >1.8 | > 60 µM |
| C#CCn1nc(/C=C/c2ccccc2)oc1=O [4a, 5-[(E)-2-Phenylethenyl]-3-(prop-2-yn-1-yl)-1,3,4-oxadiazol-2(3H)-one] | >5.1 | 16.9 µM |
| C#CCn1nc(/C=C/c2cccc(OC)c2)oc1=O [4d, 5-[(E)-2-(3-Methoxyphenyl)ethenyl]-3-(prop-2-yn-1-yl)-1,3,4-oxadiazol-2(3H)-one] | >78.1 | 7.44 µM |
| C#CCn1nc(/C=C/c2ccc(OC)cc2)oc1=O [4e, 5-[(E)-2-(4-Methoxyphenyl)ethenyl]-3-(prop-2-yn-1-yl)-1,3,4-oxadiazol-2(3H)-one] | >6.2 | 9.83 µM |
| C#CCn1nc(/C=C/c2cccc(O)c2)oc1=O [5l, 5-[(E)-2-(3-Hydroxyphenyl)ethenyl]-3-(prop-2-yn-1-yl)-1,3,4-oxadiazol-2(3H)-one] | >14.2 | 8.05 µM |
| C#CCNC(=O)/C=C/c1ccc(O)cc1 [6m, (2E)-3-(4-Hydroxyphenyl)-N-(prop-2-yn-1-yl)prop-2-enamide] | >1.6 | > 60 µM |
| C#CCNC(=O)/C=C/c1ccc(O)c(O)c1 [6o, (2E)-3-(3,4-Dihydroxyphenyl)-N-(prop-2-yn-1-yl)prop-2-enamide] | <0.9 | 19.2 µM |
| C#CCNC/C=C/c1ccc(O)c(OC)c1 [8n, 2-Methoxy-4-{(1E)-3-[(prop-2-yn-1-yl)amino]prop-1-en-1-yl}phenol] | <0.6 | 22.3 µM |
